The values that follow come from patent US9371280B2, “Substituted pyrrolidine-2-carboxamides” (Hoffmann-La Roche Inc., priority 2012, dated 2016).

Protein sequences, listed by entry. Tags and fused reporters are not part of them.
UniProt Q00987, whole entry: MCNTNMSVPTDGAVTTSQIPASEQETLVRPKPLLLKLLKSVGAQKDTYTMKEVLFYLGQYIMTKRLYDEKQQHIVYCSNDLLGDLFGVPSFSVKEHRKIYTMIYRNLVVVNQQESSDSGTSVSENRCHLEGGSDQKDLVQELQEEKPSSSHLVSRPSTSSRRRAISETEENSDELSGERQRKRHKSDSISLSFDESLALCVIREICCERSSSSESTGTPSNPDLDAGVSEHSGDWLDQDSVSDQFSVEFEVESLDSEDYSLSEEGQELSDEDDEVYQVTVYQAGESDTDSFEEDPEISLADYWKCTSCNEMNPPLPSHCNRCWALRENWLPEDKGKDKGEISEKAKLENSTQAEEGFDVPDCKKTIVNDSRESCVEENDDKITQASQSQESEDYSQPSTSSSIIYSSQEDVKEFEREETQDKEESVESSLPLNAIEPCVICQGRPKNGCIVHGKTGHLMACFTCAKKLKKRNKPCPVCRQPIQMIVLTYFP

The target in the assay is interaction between p53 and MDM2 proteins (recombinant GST-tagged MDM2) (Homo sapiens, UniProt Q00987). Put plainly: HTRF assay of inhibition of the p53-MDM2 interaction (GST-MDM2 / biotinylated p53 peptide).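 Note: FRET read-out from Eu-labelled anti-GST antibody to streptavidin-APC, with 90 nM N-terminally biotinylated p53 peptide and 160 ng/ml GST-MDM2 in Tris-borate saline containing 1 mM DTT, 384-well format.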 The class given is binding. The following applies: 0.02% BSA, 37° C. 1 h. As to the method: The ability of the compounds to inhibit the interaction between p53 and MDM2 proteins was measured by an HTRF (homogeneous time-resolved fluorescence) assay in which recombinant GST-tagged MDM2 binds to a peptide that resembles the MDM2-interacting region of p53 (Lane et al.). Binding of GST-MDM2 protein and p53-peptide (biotinylated on its N-terminal end) is registered by the FRET (fluorescence resonance energy transfer) between Europium (Eu)-labeled anti-GST antibody and streptavidin-conjugated Allophycocyanin (APC).
Incubate at 37° C. for 1 h. […] If not specified, the reagents were purchased from Sigma Chemical Co.
Background: TR-FRET usually uses a lanthanide donor and a delayed reading to cut background.

Structures can show the parent of a compound that is named as a salt.

What is called IC50 is the midpoint of a concentration-inhibition curve.

Regarding “4-{[(2R,3S,4R,5S)-4-(4-Chloro-2-fluoro-phenyl)-3-(3-chloro-2-fluoro-phenyl)-4-cyano-5-(2,2-dimethyl-propyl)-pyrrolidine-2-carbonyl]-amino}-3-methoxy-benzoic acid 2-[4-(2-hydroxy-ethyl)-piperazin-1-yl]-ethyl ester, PEG-400 ester, hydrochloride salt [Example 62]”, the IC50 was 0.0293 µM.

As for “4-{[(2R,3S,4R,5S)-4-(4-Chloro-2-fluoro-phenyl)-3-(3-chloro-2-fluoro-phenyl)-4-cyano-5-(2,2-dimethyl-propyl)-pyrrolidine-2-carbonyl]-amino}-3-methoxy-benzoic acid, mPEG-1000 amide [Example 79]”, the IC50 was 0.0345 µM. As to “4-{[(2R,3S,4R,5S)-4-(4-Chloro-2-fluoro-phenyl)-3-(3-chloro-2-fluoro-phenyl)-4-cyano-5-(2,2-dimethyl-propyl)-pyrrolidine-2-carbonyl]-amino}-3-methoxy-benzoic acid, mPEG-2000 amide [Example 81]”, the half-maximal inhibitory concentration (IC50) worked out at 0.0284 µM. In the case of “4-{[(2R,3S,4R,5S)-4-(4-Chloro-2-fluoro-phenyl)-3-(3-chloro-2-fluoro-phenyl)-4-cyano-5-(2,2-dimethyl-propyl)-pyrrolidine-2-carbonyl]-amino}-3-methoxy-benzoic acid, mPEG-550 ester, hydrochloride [Example 59]”, the concentration for half-maximal inhibition (IC50) was 0.0249 µM.

Take “4-{[(2R,3S,4R,5S)-4-(4-Chloro-2-fluoro-phenyl)-3-(3-chloro-2-fluoro-phenyl)-4-cyano-5-(2,2-dimethyl-propyl)-pyrrolidine-2-carbonyl]-amino}-3-methoxy-benzoic acid 2-[4-(2-hydroxy-ethyl)-piperazin-1-yl]-ethyl ester, mPEG-750 ester, hydrochloride salt [Example 63]”: the concentration for half-maximal inhibition (IC50) stood at 0.0148 µM. As to `COc1cc(C(=O)OCC(=O)NCCOCCO)ccc1NC(=O)[C@@H]1N[C@@H](CC(C)(C)C)[C@](C#N)(c2ccc(Cl)cc2F)[C@H]1c1cccc(Cl)c1F` [Example 74, 4-{[(2R,3S,4R,5S)-4-(4-Chloro-2-fluoro-phenyl)-3-(3-chloro-2-fluoro-phenyl)-4-cyano-5-(2,2-dimethyl-propyl)-pyrrolidine-2-carbonyl]-amino}-3-methoxy-benzoic acid [2-(2-hydroxy-ethoxy)-ethylcarbamoyl]-methyl ester], the concentration for half-maximal inhibition (IC50) was determined as 0.0345 µM. On to `CN[C@@H](C)C(=O)N[C@H](C(=O)OCCOC(=O)c1ccc(NC(=O)[C@@H]2N[C@@H](CC(C)(C)C)[C@](C#N)(c3ccc(Cl)cc3F)[C@H]2c2cccc(Cl)c2F)c(OC)c1)C(C)C` [Example 34, 4-{[(2R,3S,4R,5S)-4-(4-Chloro-2-fluoro-phenyl)-3-(3-chloro-2-fluoro-phenyl)-4-cyano-5-(2,2-dimethyl-propyl)-pyrrolidine-2-carbonyl]-amino}-3-methoxy-benzoic acid 2-[(S)-3-methyl-2-((S)-2-methylamino-propionylamino)-butyryloxy]-ethyl ester, hydrochloride], for which the IC50 amounted to 0.0144 µM. The value for “4-{[(2R,3S,4R,5S)-4-(4-Chloro-2-fluoro-phenyl)-3-(3-chloro-2-fluoro-phenyl)-4-cyano-5-(2,2-dimethyl-propyl)-pyrrolidine-2-carbonyl]-amino}-3-methoxy-benzoic acid, mPEG-2000 ester [Example 82]” was 0.04 µM; that for “4-{[(2R,3S,4R,5S)-4-(4-Chloro-2-fluoro-phenyl)-3-(3-chloro-2-fluoro-phenyl)-4-cyano-5-(2,2-dimethyl-propyl)-pyrrolidine-2-carbonyl]-amino}-3-methoxy-benzoic acid, mPEG-350 ester, trifluoroacetate salt [Example 58]” was 0.0144 µM. The value for “4-{[(2R,3S,4R,5S)-4-(4-Chloro-2-fluoro-phenyl)-3-(3-chloro-2-fluoro-phenyl)-4-cyano-5-(2,2-dimethyl-propyl)-pyrrolidine-2-carbonyl]-amino}-3-methoxy-benzoic acid, mPEG-1000 ester [Example 80]” was 0.0346 µM; that for `COc1cc(C(=O)OCCOC(=O)[C@H](C)NC(=O)OC(C)(C)C)ccc1NC(=O)[C@@H]1N[C@@H](CC(C)(C)C)[C@](C#N)(c2ccc(Cl)cc2F)[C@H]1c1cccc(Cl)c1F` [Example 3, 4-{[(2R,3S,4R,5S)-3-(3-Chloro-2-fluoro-phenyl)-4-(4-chloro-2-fluoro-phenyl)-4-cyano-5-(2,2-dimethyl-propyl)-pyrrolidine-2-carbonyl]-amino}-3-methoxy-benzoic acid 2-((S)-2-tert-butoxycarbonylamino-propionyloxy)-ethyl ester] was 0.0144 µM.
